Experiment: Ratio of compound IC50 to SU-5416 IC50 for VEGFR

O=C1Nc2ccccc2/C1=C/c1ccc(F)cc1
Ratio IC50: 7

Source: ChEMBL document CHEMBL1152667, “Synthesis and radiopharmacological investigation of 3-[4'-[(18)F]fluorobenzylidene]indolin-2-one as possible tyrosine kinase inhibitor” (Bioorg Med Chem, 2009)
